# Source: PubChem BioAssay AID940 (Emory University Molecular Libraries Screening Center, 2007)
# Sequences of proteins named here, by UniProt entry; tags and fusion partners are left off.
# UniProt P43116, whole entry: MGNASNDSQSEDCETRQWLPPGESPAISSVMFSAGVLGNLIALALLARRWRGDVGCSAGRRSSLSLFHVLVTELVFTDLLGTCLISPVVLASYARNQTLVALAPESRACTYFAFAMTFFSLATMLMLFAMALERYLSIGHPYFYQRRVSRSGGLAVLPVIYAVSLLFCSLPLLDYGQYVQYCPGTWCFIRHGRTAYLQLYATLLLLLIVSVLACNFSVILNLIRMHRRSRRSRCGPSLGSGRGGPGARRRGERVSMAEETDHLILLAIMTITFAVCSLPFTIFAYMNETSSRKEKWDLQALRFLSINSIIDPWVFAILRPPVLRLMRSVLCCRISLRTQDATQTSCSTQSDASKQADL
# The entries are a selection whose mix differs from that of the whole data set. Active and inactive are the calls of the source.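 Rule for the calls: active = compounds whose cAMP rise, as percent of the full-agonist control response, exceeds 60; inactive = the rest.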
# Molecular target: Prostaglandin E2 receptor EP2 subtype (Homo sapiens) (UniProt P43116)
# Experiment: modulation of human EP2 prostaglandin signaling – cell-based, HTRF cAMP, PGE2 stimulation, primary screen (AID 940);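 note: rat C6 glioma line stably carrying human EP2 under a CMV promoter; the protocol text gives 20 µM as final concentration; 100% = response of wells given 1 µM PGE2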
# Conditions: EP2-expressing cells, cAMP HTRF FRET, PGE2 co-stimulation; at 25 µM; active compounds read high
row,Compound,induction
1,CN(C)c1ccc(C(=O)NCC2(N3CCCCC3)CCCCC2)cc1,inactive: -9.86%
2,CCN1CCC(Nc2cccc(F)c2)CC1,inactive: 4.76%
3,Fc1ccccc1NC1CCN(Cc2ccccc2)CC1,inactive: -7.98%
4,CCCOc1ccc(C)cc1CN(CCCl)CCCl,inactive: -2.16%
5,CCC(CO)(C(=O)OC1CN2CCC1CC2)c1ccccc1 (stereo unspecified),inactive: 6.26%
6,COc1cc(OC)cc(C(=O)NCC2(N3CCOCC3)CCCCC2)c1,inactive: -5.69%
7,O=C(O)C1(Nc2ccccc2)CCN(Cc2ccccc2)CC1,inactive: 10.4%
8,CC(C)(C)OC(=O)N1CCC(Nc2ccccc2)CC1,inactive: -16.9%
9,CCOc1ncccc1C(=O)NCC1(N2CCOCC2)CCCCC1,inactive: 9.37%
10,O=C(OC1CN2CCC1CC2)C1c2ccccc2C=Cc2ccccc21 (stereo unspecified),inactive: -31.8%
11,N/C(=N\O)c1c(N)no[n+]1[O-],inactive: -5.93%
12,COc1ccc(C(=O)NCC2(N3CCOCC3)CCCCC2)cc1OC,inactive: -6.5%
13,c1ccc(CN2CCC(Nc3ccccc3)CC2)cc1,inactive: 3.79%
14,N#Cc1ccc(C(=O)NCC2(N3CCCCC3)CCCCC2)cc1,inactive: -6.32%
15,CN1CCN(CCOC(=O)C(O)(c2ccccc2)c2ccccc2)CC1,inactive: 8.68%
16,COc1ccc(NC2CCN(C(=O)OC(C)(C)C)CC2)cc1,inactive: -15.8%

row,Compound,induction
1,O=C(NCC1(N2CCOCC2)CCCCC1)c1cc(=O)[nH]c2ccccc12,inactive: -11.1%
2,O=C(NCC1(N2CCCCC2)CCCCC1)c1cccc([N+](=O)[O-])c1,inactive: -11%
3,N#CC1(Nc2ccccc2)CCN(CCc2ccccc2)CC1,inactive: -16.4%
4,NC1CCCCC1.NP(=O)(O)N(CCCl)CCCl,inactive: -14.4%
5,CN(C)c1cccc(C(=O)NCC2(N3CCCCC3)CCCCC2)c1,inactive: -41.2%
6,COc1ccc(CN(CCCl)CCCl)cc1Cl,inactive: -41.1%
7,CC(C)c1ccc(NC2CCN(C(=O)OC(C)(C)C)CC2)cc1,inactive: -1.65%
8,CCOC(=O)N1CCC(Nc2ccc(OC)cc2)CC1,inactive: 4.1%
9,N#CC1(Nc2ccccc2)CCN(Cc2ccccc2)CC1,inactive: -10.8%
10,O=C(OC1CN2CCC1CC2)C1c2ccccc2Oc2ccccc21 (stereo unspecified),inactive: -10.9%
11,O=C(NCC1(N2CCOCC2)CCCCC1)c1cc2ccccc2o1,inactive: 10.8%
12,COc1ccc(C(=O)NCC2(N3CCCCC3)CCCCC2)c(OC)c1OC,inactive: 21.6%
13,Cc1ccc(OCC(C)C)c(CN(CCCl)CCCl)c1,inactive: 0.68%
14,COc1ccc(NC2CCN(CCc3ccccc3)CC2)c(OC)c1,inactive: 3.54%
15,CCOc1ccc(C)cc1CN(CCCl)CCCl,inactive: -9.97%
